According to patent publication US8110193B2, “Methods for conditioning a subject for hematopoietic cell transplantation” (City of Hope, priority 2007, dated 2012):

Test system: anti-CD3-activated T cells
Experiment: T cell proliferation by anti-CD3-stimulation
Conditions: 1 μM SAHA

`O=C(CCCCCCC(=O)Nc1ccccc1)NO` [SAHA, suberoylanilide hydroxamic acid] was tested. Which “proliferation of anti-CD3-activated T cells” value did it give?
The value was “no proliferation at all”.
